Screening results: PubChem BioAssay, National Center for Advancing Translational Sciences (NCATS)
Rows were chosen to be rich in hits. Some 0.1% of all compounds tested hit in one or more screens of this group.
Rango-impB inh – qHTS Assay for Inhibitors of Rango (Ran-regulated importin-beta cargo) - Importin beta complex formation; Rango CFP/YFP FRET sensor + importin beta, 45 min; 340,000 compounds, 0.031% hits; Potency, µM (series often up to 92.2 µM); AID 540263, 2011; also: nearly all actives have a fitted effect of over 15% in size
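FRET biosensor Rango (snurportin 1 IBB between N-terminal EYFP and C-terminal Cerulean), 50 nM in PBS/1 mM DTT/0.02% Tween-20/0.1% BSA, preincubated 5 min RT with compound; 0.125 microM importin beta added, 45 min RT, CFP/YFP FRET ratio read.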
LMNA splice mod – qHTS Assay for Modulators of Lamin A Splicing. Potency, µM (series often up to 46.1 µM), usual class: inhibitors. HeLa LMNA splicing GFP/RFP minigene ratio, 48 h. 200,000 compounds, 0.01% hits; active = well fitted inhibition curve with a large enough effect in the signal ratio, with a control signal flat, not every such curve was filed as active; inconclusive = small, poorly fitted or top-dose-only effect, or effect the other way, or a change in a side signal; the % refers to the signal ratio
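S3 HeLa stable clones carrying a lamin A-EGFP splicing minigene plus DsRed2 were seeded at 600 cells/well in Opti-MEM with 2% FBS, pin-dosed and incubated 48 h at 37°C. Acumen cytometry (488 nm) gave the GFP/RFP total-intensity ratio.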
Rango release inh – qHTS Assay for Inhibitors of RanGTP induced Rango (Ran-regulated importin-beta cargo) - Importin beta complex dissociation. Snurportin-1 (Homo sapiens) + GTP-binding nuclear protein Ran (Homo sapiens) + Importin …. Biochemical FRET Rango-importin beta, RanGTP-induced dissociation. Potency, µM (series often up to 46.1 µM). 340,000 compounds, 0.071% hits; also: nearly all actives have a fitted effect of over 45% in size
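Two FRET readings bracket the reaction: one 5 min after compound meets Rango–importin beta, another 45 min after RanGTP-RCC1 (0.6 uM Ran, 0.2 uM RCC1, 2 mM GTP) is added. Only the second defines inhibition.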
Numbers stand for hits; i = inactive; ? = inconclusive; nt = no result; [ ] = another dose, or the depositor's remark. Unless noted, calls follow the shape of the full dose curve.

SMILES	Rango-impB inh	LMNA splice mod	Rango release inh
Cc1cccc2nc(CNC(=O)CC3C(=O)NCCN3Cc3cccc(F)c3)cn12 (configuration not stated)	i	nt	i
COc1cc(/C=c2\s/c(=C(/C#N)C(=O)N3CCCC3)n(-c3ccccc3)c2=O)ccc1O	?	i	?
Cc1ccc(/C=c2\s/c(=C(/C#N)C(=O)N3CCCC3)n(Cc3ccco3)c2=O)s1	?	i	8.2µM
CCN(C(=O)CSc1nnc(COc2ccccc2F)n1N)c1c(N)n(Cc2ccccc2)c(=O)[nH]c1=O	i	nt	i
COC(=O)/C(C#N)=C/c1c(N2CCN(c3ccc(OC)cc3)CC2)nc2c(C)cccn2c1=O	i	nt	?
COCCCNC(=O)/C(C#N)=C/c1c(N2CCN(c3ccc(OC)cc3)CC2)nc2c(C)cccn2c1=O	?	nt	4.61µM
O=C(CN1CCCCCC1)Nc1ccc(Br)cc1	i	i	i
N#Cc1c(N2CCOCC2)nc(N2CCCCC2)c2c1CCN(C1CCCCC1)C2	?	i	23.1µM
CCN1CCc2c(C#N)c(N3CCOCC3)nc(N3CCOCC3)c2C1	i	i	i
CSc1nnc(C)c(/C=C/NOCc2ccc(Cl)cc2)n1	i	nt	i
O=C(NC(=S)NCc1ccc(Cl)cc1Cl)c1ccco1	i	nt	i
Cc1ccc(S(=O)(=O)/C(C#N)=C/c2c(N3CCC(C(N)=O)CC3)nc3c(C)cccn3c2=O)cc1	?	i	?
Cc1ccc(S(=O)(=O)/C(C#N)=C/c2c(N3CCC(C(N)=O)CC3)nc3ccccn3c2=O)cc1	?	i	13µM
O=c1oc(/C=C/c2ccc([N+](=O)[O-])s2)nc2ccccc12	?	nt	9.2µM
CC(=O)Oc1ccccc1/C=C/c1nc2ccccc2c(=O)o1	i	nt	i
CCc1sc(C(=O)NCCc2ccc(S(N)(=O)=O)cc2)cc1Br	i	i	i
O=C(CNS(=O)(=O)c1cccs1)Nc1ccc2c(c1)OCCO2	i	?	i
Cc1ccc(N)cc1O	?	nt	23.1µM
Nc1ccc(C(=O)O)c(O)c1	i	?	i
CO/N=C/C(C(C)=O)C(=O)Nc1ccc(Cl)cc1Cl (configuration not stated)	i	nt	i
CNc1ccc(/C=C(\C#N)C(=O)Nc2ccccn2)cc1[N+](=O)[O-]	?	nt	i
C=CCOc1ccc(/C=C(\C#N)C(=O)Nc2ccccn2)cc1	?	nt	25.9µM
COc1ccc(CNC(=O)c2ccc3c(c2)N(C)C(=O)CS3=O)cc1 (configuration not stated)	i	i	i
COc1ccc2ccccc2c1/C=N/NC(=S)Nc1cc(S(=O)(=O)N2CCOCC2)ccc1N1CCOCC1	?	?	i
CCOc1cccc(/C=N/NC(=S)Nc2cc(S(=O)(=O)N3CCOCC3)ccc2N2CCOCC2)c1O	?	?	3.66µM
SMILES	Rango-impB inh	LMNA splice mod	Rango release inh
COc1cc(CC(=O)OCC(=O)c2c[nH]c3ccccc23)cc(OC)c1OC	i	nt	i
Cc1cccc(NC(=S)N/N=C/c2ccc([N+](=O)[O-])s2)c1	i	?	i
Cc1cccc(NC(=O)/C=C/c2ccc([N+](=O)[O-])s2)c1	?	?	2.06µM[inhibitor]
Cc1ccc(C(=O)N/N=C/c2ccc([N+](=O)[O-])s2)cc1	i	i	i
Cc1ccc(NC(=O)/C=C/c2ccc([N+](=O)[O-])s2)cc1	i	?	0.731µM[inhibitor]
CC(O)c1nc2ccc(C(=O)O)cc2[nH]1 (configuration not stated)	i	nt	i
O=C(COC(=O)CNC(=O)c1ccc(Cl)cc1)NC1CCCCCC1	i	nt	i
CNc1nc(N/N=C/c2cc([N+](=O)[O-])ccc2F)nc(Nc2ccccc2)n1	i	nt	i
CNc1nc(N/N=C/c2cc3c(cc2[N+](=O)[O-])OCO3)nc(Nc2ccccc2)n1	65.1µM	nt	i
CCN(CC)c1cc2c(cc1F)c(=O)c(S(=O)(=O)c1ccc(C)cc1)cn2Cc1ccc(F)cc1	nt	i	nt
O=C(CCl)NCCCN(C(=O)C(Cl)Cl)c1ccc([N+](=O)[O-])cc1	i	nt	i
CC1CCc2nn(CC(=O)Nc3cccc(C(F)(F)F)c3)c(=O)cc2C1 (configuration not stated)	nt	i	nt
O=C(CSc1ccccn1)N1CCN(c2ccc(Cl)cc2)CC1	i	i	i
O=C(CSc1ccccn1)N1CCN(C(=O)CSc2ccccn2)CC1	65.1µM	i	i
O=C(NNC(=S)NC1CCCCC1)c1cccc(S(=O)(=O)Nc2ccccc2Cl)c1	i	?	i
Nc1ccc(O)c(-c2nc3ccccc3s2)c1	?	i	10.3µM
Oc1ccc(-c2nc3ccccc3s2)c(O)c1	i	nt	i
